Source: ChEMBL document CHEMBL1137822 (J Med Chem, 2004)

The chains behind the UniProt entries cited, without tags or fusion partners.
UniProt P06276, whole entry: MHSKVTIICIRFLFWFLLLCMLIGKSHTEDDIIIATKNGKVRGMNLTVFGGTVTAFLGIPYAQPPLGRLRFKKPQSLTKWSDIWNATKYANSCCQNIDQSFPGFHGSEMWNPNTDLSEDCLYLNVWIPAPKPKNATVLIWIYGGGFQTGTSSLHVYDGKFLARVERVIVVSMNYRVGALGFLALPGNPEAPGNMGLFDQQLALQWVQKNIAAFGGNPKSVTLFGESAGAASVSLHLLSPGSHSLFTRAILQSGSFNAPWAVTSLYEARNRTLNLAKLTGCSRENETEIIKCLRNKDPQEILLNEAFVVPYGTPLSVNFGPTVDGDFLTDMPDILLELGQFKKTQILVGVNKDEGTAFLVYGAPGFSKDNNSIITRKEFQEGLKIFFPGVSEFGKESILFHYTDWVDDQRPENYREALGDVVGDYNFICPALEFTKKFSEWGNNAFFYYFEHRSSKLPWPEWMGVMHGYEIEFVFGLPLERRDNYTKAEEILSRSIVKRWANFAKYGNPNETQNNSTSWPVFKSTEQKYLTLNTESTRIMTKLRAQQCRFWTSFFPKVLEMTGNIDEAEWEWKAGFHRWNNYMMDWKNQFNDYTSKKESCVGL

Target: Cholinesterase (Homo sapiens, UniProt P06276)
Assay: Inhibitory concentration against human serum butyrylcholinesterase activity

SMILES: CCN(C)C(=O)Oc1cccc([C@H](C)N(C)C)c1 [RIVASTIGMINE]
- IC50: 301 nM
